Laboratory results: patent publication US12116355B2, “Deuterated 1-piperazino-3-phenyl indanes for treatment of schizophrenia” (H. Lundbeck A/S, priority 2011, dated 2024)
Read-outs that look alike come from different tables or passages of the source.

By UniProt entry, the sequences of proteins in these tests, tags left out. Chains listed by the source or under a name are the forms on record and can include a tag or linker.
UniProt P14416, other isoform, or with tags, fused parts or gaps: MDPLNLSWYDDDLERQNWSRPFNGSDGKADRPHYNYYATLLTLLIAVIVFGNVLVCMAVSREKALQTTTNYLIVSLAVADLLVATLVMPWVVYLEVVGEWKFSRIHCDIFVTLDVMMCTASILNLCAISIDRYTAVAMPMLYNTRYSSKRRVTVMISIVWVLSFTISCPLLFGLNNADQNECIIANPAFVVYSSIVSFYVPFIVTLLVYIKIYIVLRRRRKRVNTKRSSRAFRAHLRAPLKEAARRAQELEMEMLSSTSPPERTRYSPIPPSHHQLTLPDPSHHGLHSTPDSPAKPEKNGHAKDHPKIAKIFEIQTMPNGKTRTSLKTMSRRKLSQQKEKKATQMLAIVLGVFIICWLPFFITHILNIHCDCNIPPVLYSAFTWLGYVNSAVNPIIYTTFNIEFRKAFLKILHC
UniProt P14416, whole entry: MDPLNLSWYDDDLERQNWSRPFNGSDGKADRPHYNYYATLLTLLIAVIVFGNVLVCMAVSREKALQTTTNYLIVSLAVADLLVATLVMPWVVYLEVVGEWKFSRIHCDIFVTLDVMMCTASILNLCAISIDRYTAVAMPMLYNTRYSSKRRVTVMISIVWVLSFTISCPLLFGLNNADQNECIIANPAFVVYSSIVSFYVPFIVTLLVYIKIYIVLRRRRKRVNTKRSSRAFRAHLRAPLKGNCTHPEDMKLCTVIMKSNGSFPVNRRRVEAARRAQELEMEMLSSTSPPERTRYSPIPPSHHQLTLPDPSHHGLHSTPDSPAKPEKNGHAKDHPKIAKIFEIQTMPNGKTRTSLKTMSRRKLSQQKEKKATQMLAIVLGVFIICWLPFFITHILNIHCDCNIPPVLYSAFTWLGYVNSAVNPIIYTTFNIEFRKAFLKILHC

Assays:
human D2 receptor [1] = molecular target: T1, human D2 receptor (Homo sapiens (Human), UniProt P14416); test: Alternative human D2 receptor binding (Cerep, side-by-side)
human D2 receptor [2] = molecular target: T1, human D2 receptor; assay type: binding

Row | Structure (SMILES) | Ki (human D2 receptor [1]) | other results
1 | [2H]C([2H])([2H])N1C([2H])([2H])CN([C@@H]2C[C@@H](c3ccccc3)c3ccc(Cl)cc32)CC1(C)C (single isomer, unassigned) [Compound (V)] | 4.8 nM | –
2 | [2H]C([2H])([2H])N1CCN([C@@H]2C[C@@H](c3ccccc3)c3ccc(Cl)cc32)CC1(C)C [Compound (I), 4-((1R,3S)-6-chloro-3-phenyl-indan-1-yl)-1-methyl-d3-2,2-dimethyl-piperazine] | – | D2: pKi (human D2 receptor [2]; printed as pKi, numerically log10 of Ki in nM): 1.54±0.11; Ki (human D2 receptor [2]; read-out: D2: Ki log mean (converted)): 34 nM; Ki (human D2 receptor [1]; read-out: alternative human D2 receptor binding (Ki), Cerep side-by-side analysis): 7.6 nM
3 | [2H]c1c([2H])c([2H])c([C@@H]2C[C@@H](N3CCN(C)C(C)(C)C3)c3cc(Cl)ccc32)c([2H])c1[2H] (single isomer, unassigned) [Compound (II)] | 6.8 nM | –
4 | [2H]c1c([2H])c([2H])c([C@@H]2C[C@@H](N3CCN(C([2H])([2H])[2H])C(C)(C)C3)c3cc(Cl)ccc32)c([2H])c1[2H] (single isomer, unassigned) [Compound (IV)] | 10 nM | –
5 | CN1CCN([C@@H]2C[C@@H](c3ccccc3)c3ccc(Cl)cc32)CC1(C)C [Compound (X), 4-((1R,3S)-6-Chloro-3-phenyl-indan-1-yl)-1,2,2-trimethyl-piperazine] | – | Ki (human D2 receptor [1]; Cerep side-by-side analysis, read-out: alternative human D2 receptor binding (Ki)): 7 nM
6 | [2H]C1([2H])CN([C@@H]2C[C@@H](c3ccccc3)c3ccc(Cl)cc32)CC(C)(C)N1C (single isomer, unassigned) [Compound (III)] | 7.6 nM | –

Further lines, with some results ahead:

Row | Ki (human D2 receptor [1]) | Structure (SMILES) | other results
7 | 3.7 nM | [2H]c1c([2H])c([2H])c([C@@H]2C[C@@H](N3CC([2H])([2H])N(C([2H])([2H])[2H])C(C)(C)C3)c3cc(Cl)ccc32)c([2H])c1[2H] (single isomer, unassigned) [Compound (VI)] | –
8 | 5.2 nM | [2H]c1c([2H])c([2H])c([C@@H]2C[C@@H](N3CC([2H])([2H])N(C)C(C)(C)C3)c3cc(Cl)ccc32)c([2H])c1[2H] (single isomer, unassigned) [Compound (VII)] | –
